Test results as given in patent US12521437B2 (Synthorx, Inc., priority 2019, dated 2026).

Test system: CTLL-2
Test: CTLL-2 proliferation
Assay type: cell-based, mouse

Native IL-2: native IL-2 (wild-type IL-2; Thermo #PHC0021) [reference compound]
EC50 CTLL-2 proliferation (Table 3): 0.846 ng/mL | EC50 CTLL-2 proliferation (Table 13 (Example 11)): 0.4558 ng/mL
